Reference: PubChem BioAssay AID720709 (National Center for Advancing Translational Sciences (NCATS), 2013)
The entries are a selection whose mix differs from that of the whole data set. Results filed as inconclusive are left out. The source made the active and inactive calls. The call rests on the fitted dose curve; in most records, active means well fitted inhibition curve with a large enough effect; inconclusive means small, poorly fitted or top-dose-only effect; inactive means no such curve, though single readings can be large or run the other way.

Sequences of proteins named here, by UniProt entry; tags and fusion partners are left off.
UniProt O95398, whole entry: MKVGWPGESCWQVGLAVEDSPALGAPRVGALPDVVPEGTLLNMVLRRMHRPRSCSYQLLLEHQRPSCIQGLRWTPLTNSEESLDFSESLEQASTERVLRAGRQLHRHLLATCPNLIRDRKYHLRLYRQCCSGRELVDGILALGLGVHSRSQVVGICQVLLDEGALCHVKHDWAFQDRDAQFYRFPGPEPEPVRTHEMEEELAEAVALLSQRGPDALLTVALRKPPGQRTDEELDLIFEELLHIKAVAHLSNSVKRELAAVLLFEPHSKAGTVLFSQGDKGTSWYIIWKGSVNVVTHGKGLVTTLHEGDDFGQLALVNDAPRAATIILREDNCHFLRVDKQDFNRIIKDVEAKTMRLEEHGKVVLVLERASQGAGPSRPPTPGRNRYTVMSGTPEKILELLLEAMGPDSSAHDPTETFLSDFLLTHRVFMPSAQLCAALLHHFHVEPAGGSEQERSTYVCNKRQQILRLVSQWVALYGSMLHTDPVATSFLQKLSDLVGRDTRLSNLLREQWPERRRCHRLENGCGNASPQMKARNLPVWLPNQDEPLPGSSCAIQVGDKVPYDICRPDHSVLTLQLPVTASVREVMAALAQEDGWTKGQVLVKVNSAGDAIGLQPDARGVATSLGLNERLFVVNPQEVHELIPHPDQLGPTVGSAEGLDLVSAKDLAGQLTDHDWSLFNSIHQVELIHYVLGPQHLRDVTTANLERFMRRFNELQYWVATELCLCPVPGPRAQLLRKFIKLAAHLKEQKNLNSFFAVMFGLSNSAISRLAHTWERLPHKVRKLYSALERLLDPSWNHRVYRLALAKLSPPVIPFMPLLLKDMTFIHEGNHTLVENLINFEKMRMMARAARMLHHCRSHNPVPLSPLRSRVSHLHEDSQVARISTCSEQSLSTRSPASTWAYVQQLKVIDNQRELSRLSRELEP

target: Rap guanine nucleotide exchange factor 3 (Homo sapiens) (UniProt O95398); assay: qHTS for Antagonist of cAMP-regulated guanine nucleotide exchange factor 3 (EPAC1): primary screen; conditions: EPAC1 GEF assay, Rap1b-BODIPY-GDP exchange fluorescence; at 115 µM (top of the series);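 further: plate controls were vehicle for no effect and positive control for full effect; nearly all actives have a fitted effect of over 50% in size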

Compound | activity change, negative = inhibition
CCCCn1nnnc1C(c1cc2ccccc2o1)N1CCC(n2c(=O)[nH]c3ccccc32)CC1 (stereo not given) | inactive: 0.234%
O=P1(N(CCCl)CCCl)SCCCS1 | inactive: -7.02%
CCCCOc1ccc(C(=O)NCC2(N3CCOCC3)CCCCC2)cc1 | inactive: -16.1%
COc1ccc(NC2CCN(CCc3ccccc3)CC2)c(OC)c1 | inactive: -0.291%
CCOC(=O)N1CCC(Nc2ccc(F)cc2)CC1 | inactive: -2.09%
CC(C)(C)n1nnnc1C(c1ccccc1)N1CCC(n2c(=O)[nH]c3ccccc32)CC1 (stereo not given) | inactive: 0.141%
O=C1CCN(Cc2ccccc2)CC1 | inactive: 3.19%
CCOc1ccc(C)cc1CN(CCCl)CCCl | inactive: -26.5%
O=C(OC1CN2CCC1CC2)C1c2ccccc2Oc2ccccc21 (stereo not given) | inactive: -6.33%
O=c1[nH]c2ccccc2n1C1CCN(C(c2cc3ccccc3o2)c2nnnn2C2CCCCC2)CC1 (stereo not given) | inactive: 6.76%
O=C(NCC1(N2CCCCC2)CCCCC1)c1ccc(Cl)s1 | inactive: 12.9%
N#CC1(Nc2ccccc2)CCN(Cc2ccccc2)CC1 | inactive: -8.15%
O=C1C(O)=C([N+](=O)[O-])C(=O)C(O)=C1[N+](=O)[O-] | inactive: -3.28%
COc1ccc(Cl)cc1C(=O)NCC1(N2CCOCC2)CCCCC1 | inactive: -8.01%
CCOC(=O)N1CCC(Nc2ccc(OC)cc2)CC1 | inactive: -1.31%
CCCCn1nnnc1C(c1ccc(OC)cc1)N1CCC(n2c(=O)[nH]c3ccccc32)CC1 (stereo not given) | inactive: -16.3%
O=c1[nH]c2ccccc2n1C1CCN(C(c2ccccc2OC(F)(F)F)c2nnnn2C2CCCCC2)CC1 (stereo not given) | inactive: -2.74%
O=C(NCC1(N2CCCCC2)CCCCC1)c1ccc(Cl)nc1 | inactive: -7.39%
Cc1cc(C)cc(N(C(=O)c2ccccc2)C2CCN(C(=O)OC(C)(C)C)CC2)c1 | inactive: -21.4%
O=C(NCC1(N2CCOCC2)CCCCC1)c1cc2ccccc2o1 | inactive: 6.48%
CSc1ccccc1C(=O)NCC1(N2CCCCC2)CCCCC1 | inactive: 0.0909%
Cc1cccc(NC2(C#N)CCN(Cc3ccccc3)CC2)c1 | inactive: -3.43%
COc1ccc(C(=O)NCC2(N3CCCCC3)CCCCC2)cc1 | inactive: 4.04%
CCC(c1nnnn1C1CCCC1)N1CCC(n2c(=O)[nH]c3ccccc32)CC1 (stereo not given) | inactive: -6.8%
CC(C)(C)OC(=O)N1CCC(N(C(=O)c2ccccc2)c2ccc(F)cc2)CC1 | inactive: 8.95%
COc1ccc(C(=O)NCC2(N3CCCCC3)CCCCC2)c(OC)c1OC | inactive: -15.1%
O=C(NCC1(N2CCCCC2)CCCCC1)c1ccc(=O)[nH]c1 | inactive: 22.2%
CCCCn1nnnc1C(c1cccs1)N1CCC(n2c(=O)[nH]c3ccccc32)CC1 (stereo not given) | inactive: -24.1%
O=C(NCC1(N2CCCCC2)CCCCC1)c1cccs1 | inactive: -7.72%
CCCCn1nnnc1C(CC)N1CCC(n2c(=O)[nH]c3ccccc32)CC1 (stereo not given) | inactive: 6.64%
